## AlphaSeq binding of Ab-14 heavy chain variants to a spike HR2 peptide

Data: MIT Lincoln Laboratory AlphaSeq set, Li et al. 2023, doi:10.1038/s41467-023-39022-2, as distributed in FLAb.

Target peptide (SARS-CoV-2 spike, HR2 region): PDVDLGDISGINAS

Each scFv is VH, the linker GGGGSGGGGSGGGGS, VL, as in the parent Ab-14, and differs from it in the CDRs of the heavy chain only.
VH: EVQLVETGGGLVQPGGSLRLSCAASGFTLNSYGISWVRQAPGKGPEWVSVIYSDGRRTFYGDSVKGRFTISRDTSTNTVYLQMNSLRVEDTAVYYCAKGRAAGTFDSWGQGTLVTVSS
VL: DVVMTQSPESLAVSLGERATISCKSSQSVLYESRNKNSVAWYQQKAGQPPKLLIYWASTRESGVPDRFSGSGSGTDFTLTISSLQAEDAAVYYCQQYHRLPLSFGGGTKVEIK

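These sequences belong to a second round, designed from the earlier measurements on random variants of the parent. Their group label is 14H_GPLM_Gen (GPLM: also part of the Gaussian process libraries; Gen: genetic algorithm; a sequence that several methods proposed may carry one label only). AlphaSeq pools MATa yeast showing the antibodies with MATalpha yeast showing the peptide. Mating (16 h, 30 °C) was followed by selection of diploids and sequencing of their barcodes. Each replicate has its own calibration line, from reference interactions of the BCL2 family. There are six technical replicates.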

Substitutions are numbered in sequence along the VH above, starting at 1 (not Kabat). Scale: log10 of Kd in nM, estimated from mating counts; low values are strong binders. A mean of the replicates is given; it leaves out those without a signal. Where no diploid with the target was found in that replicate, the entry reads "nd": below detection, most likely a poor binder, though not proof of it. Three control strains display no target. For all heavy chain designs, 1% of the pairings with them gave a signal, with a median of 2.08 and one signal in twenty below 0.84, so weak values seen in few replicates may be background. Also given: how often the same scFv was detected with the empty control strains, with their mean in brackets. In the paper, a design with two or fewer of six values counts as a poor binder. A sequence measured in both rounds can read differently, since the two assays cover different ranges. Of ten entries with the parent sequence, four were seen in most replicates (averages 0.34 to 2.37), three in one and three in none, so single entries are noisy.

| changes | log10 Kd, replicates | mean log10 Kd (nM) | signal with controls |
|---|---|---|---|
| S31E R100Q S107L | -1.14 -1.02 0.74 0.90 -0.17 -1.28 | -0.33 | 0 of 18 |
| T28W G61S R100Q | -0.90 -0.93 -0.49 0.32 -0.58 -0.65 | -0.54 | 0 of 18 |
| N30E G61A S63E | nd nd nd nd nd nd | nd | 0 of 18 |
| T28S S31E A101E S107T | -0.24 0.17 -0.42 -0.45 -0.30 -0.25 | -0.25 | 0 of 18 |
| S53A R100K A101T | -0.04 -0.10 0.10 -0.16 -0.17 0.00 | -0.06 | 0 of 18 |
| G26K T28S G61A A101T | nd 1.26 nd nd nd nd | 1.26 | 0 of 18 |
| T28D G61R R100Q | -0.14 1.96 0.61 -0.11 -0.12 0.85 | 0.51 | 0 of 18 |
| G61S S63D R100E | 0.32 1.22 0.12 0.44 0.72 1.62 | 0.74 | 0 of 18 |
| T28D R56T A101T | 0.32 -0.20 -0.07 0.82 0.97 0.67 | 0.42 | 0 of 18 |
| G61V R100Q A101V | nd nd 0.60 1.20 nd nd | 0.90 | 0 of 18 |
| T28S G61A R100Q S107Q | 1.22 0.68 1.02 0.64 1.17 1.23 | 0.99 | 0 of 18 |
| N30D G61A R100Q | 1.60 -0.01 -0.09 0.01 -0.32 0.28 | 0.25 | 0 of 18 |
| T28Q G61A R100T | 1.16 0.89 0.92 0.64 -0.12 1.61 | 0.85 | 0 of 18 |
| S31E G61K A101T | 0.00 0.13 -0.16 -0.08 -0.14 -0.10 | -0.06 | 1 of 18 (2.06) |
| R56K A101V S107T | nd nd nd nd nd 1.93 | 1.93 | 0 of 18 |
| T28S G61S R100N | 0.03 -0.36 0.03 -0.21 0.12 -0.18 | -0.09 | 0 of 18 |
| T28S R100Q A101T S107K | 0.17 0.44 0.61 0.04 0.24 0.57 | 0.35 | 0 of 18 |
| T28S G61S R100S | 0.35 -0.04 -0.14 0.10 0.04 0.15 | 0.08 | 0 of 18 |
| T28D G61A A101V | 0.14 -0.02 -0.04 0.01 -0.11 0.20 | 0.03 | 2 of 18 (2.50) |
| T28S S31E G61H R100S | -0.42 -0.42 -0.09 -0.32 -0.28 0.09 | -0.24 | 1 of 18 (1.38) |
| T28L S31E G61A A101T | 0.09 -0.31 -0.31 0.53 0.00 0.54 | 0.09 | 0 of 18 |
| T28V G61A A101M | nd nd nd 0.00 nd nd | 0.00 | 0 of 18 |
| T28S S31E G61A A101Q | -0.21 -0.09 -0.14 0.13 -0.13 -0.01 | -0.07 | 0 of 18 |
| T28D S63P A101T | nd nd 0.37 nd nd nd | 0.37 | 0 of 18 |
| T28S N30K S31E A101T | -0.62 -0.61 -0.82 -0.24 -0.59 -0.74 | -0.60 | 0 of 18 |
| T28S G61S R100E S107A | -0.19 -0.12 -0.13 -0.24 -0.07 0.15 | -0.10 | 1 of 18 (2.16) |
| T28Q S31E A101E S107T | -0.22 -0.12 -0.48 -0.64 -0.50 -0.50 | -0.41 | 1 of 18 (1.95) |
| S31E A101V S107T | -0.12 0.11 -0.09 -0.10 -0.16 0.30 | -0.01 | 0 of 18 |
| T28G S31E | 0.04 0.13 0.16 0.24 -0.04 0.69 | 0.20 | 0 of 18 |
| T28S S31W G61A R100N | 2.12 1.41 1.48 0.83 1.23 1.65 | 1.45 | 0 of 18 |
| T28S G61A R100S A101T | 0.30 0.22 0.01 -0.22 0.07 0.22 | 0.10 | 0 of 18 |
| T28E G61A R100Q S107T | 0.28 -0.12 -0.44 -0.55 -0.20 1.49 | 0.08 | 0 of 18 |
| T28G G61T A101T | 0.63 1.14 2.20 1.07 1.87 2.06 | 1.50 | 0 of 18 |
| G61S R100K A101D | 0.84 1.06 0.05 1.99 0.46 1.26 | 0.94 | 1 of 18 (1.96) |
| T28H G61A A101V | 0.42 0.83 0.05 0.38 0.50 0.24 | 0.40 | 0 of 18 |
| T28Y S53A R100K | 1.12 1.02 1.12 0.99 1.22 0.85 | 1.05 | 0 of 18 |
| T28S F59M A101T | 0.78 0.64 0.81 0.59 1.12 0.92 | 0.81 | 0 of 18 |
| T28E R100A A101T | 0.63 0.47 0.59 0.34 0.27 0.44 | 0.46 | 1 of 18 (1.56) |
| T28D G61A R100Q S107V | 0.07 -0.12 -0.24 -0.39 -0.13 0.15 | -0.11 | 0 of 18 |
| T28S S31E A101T S107M | nd -0.92 nd -0.81 nd -0.71 | -0.81 | 0 of 18 |
| F59A G61S R100Q | 0.99 1.01 0.89 0.85 1.73 1.47 | 1.16 | 0 of 18 |
| T28S S31E R100Q S107R | 0.11 0.95 0.48 0.96 0.69 0.84 | 0.67 | 0 of 18 |
| G26S S53A | 1.68 1.09 0.27 0.42 1.33 1.07 | 0.98 | 0 of 18 |

2 of these entries, quoted again:

| changes | log10 Kd, replicates | mean log10 Kd (nM) | signal with controls |
|---|---|---|---|
| G26K T28S G61A A101T | nd 1.26 nd nd nd nd | 1.26 | 0 of 18 |
| T28S S31E G61H R100S | -0.42 -0.42 -0.09 -0.32 -0.28 0.09 | -0.24 | 1 of 18 (1.38) |